The values below are quoted from earlier work in patent US20150164812A1, “Porous Tablets As Carriers For Liquid Formulations” (Veloxis Pharmaceuticals A/S, priority 2004, published 2015).

The conditions of the series: Table 1 Poorly-Soluble Drug Candidates.

On to Medroxyprogesterone, for which the “Solubility In Water” value is “Insoluble”.
